Measured values published in US20200069772A1, “METHODS OF TREATING EARLY RHEUMATOID ARTHRITIS” (BRISTOL-MYERS SQUIBB COMPANY, priority 2014, published 2020).

Legend:
Format in all cases: in vivo, human
patients with early RA [1] = assay: AVERT trial: contrast MRI of wrist and hand (synovitis, osteitis, erosion score); conditions: at 12 months
Protocol: All patients underwent contrast magnetic resonance imaging (MRI) of the wrist and hand of the major affected upper limb at baseline and at 6, 12, 18 and 24 months.
Adjusted mean MRI change from baseline and standard error was calculated for all arms using a longitudinal repeated measures model. Safety assessments were based on the intent-to-treat population (patients who received≥1 dose of study medication). Analysis of other secondary endpoints is described in the supplementary information.

patients with early RA [2] = assay: AVERT trial: HAQ-DI response (≥0.3 points reduction from baseline)
patients with early RA [3] = assay: AVERT phase 3b randomized active-controlled trial: signs and symptoms (DAS-defined remission, other remission and ACR measures)
Source text: Assessing Very Early Rheumatoid Arthritis Treatment (AVERT) was a phase 3b, randomized, active-controlled trial of 24 months, with a 12-month, double-blind treatment period.
The study population included adults (≥18 years old) with active clinical synovitis of ≥2 joints for ≥8 weeks, with persistent symptoms for ≤2 years; Disease Activity Score (DAS)28 (C-reactive protein [CRP])≥3.2 and anti-citrullinated peptide (CCP)-2 antibody positivity. […] Patients receiving oral corticosteroids were required to be on a stable dose (≤10 mg/day for ≥4 weeks) at initiation and to maintain that dose until Month 12.
SC abatacept was administered at 125 mg/week. […] All patients received concomitant folic acid therapy.
Patients with DAS28 (CRP)≥3.2 were discontinued.
For the purpose of this study, DAS-defined remission was DAS28 (CRP)<2.6.
Exploratory endpoints included: Other remission rates (Simplified Disease Activity Index [SDAI; ≤3.3], Clinical Disease Activity Index [CDAI; ≤2.8] and Boolean remission [28-joint tender joint count ≤1 and 28-joint swollen joint count ≤1 and patient global assessment of disease activity [0-10 cm]≤1 and high-sensitivity CRP≤1 mg/dL]), American College of Rheumatology (ACR) responses and Major Clinical Response (ACR 70 response for 6 months at any time period) in each arm.
Co-primary endpoints were tested in hierarchical fashion. […] All patients who discontinued prior to completing the treatment or withdrawal period were imputed as non-responders for the Month 12 or 18 analyses.
Endpoints of Disease Activity Score (DAS)-defined remission, SDAI remission, CDAI remission, Boolean remission, ACR 20/50/70 response and Major Clinical Response over time were summarized using descriptive statistics (with 95% confidence intervals at each time point). Missing remission data not due to premature discontinuation and not at Day 1 of the treatment period or at Day 169 of the withdrawal period was imputed as a remission if the missing value occurred between two observed remissions. Missing ACR response data not due to premature discontinuation and not at Day 1 of the treatment period or at Day 169 of the withdrawal period was imputed as an ACR response if the missing value occurred between two observed ACR responses.
For each treatment arm, a post hoc analysis was performed of mean baseline characteristics for patients who achieved DAS-defined remission at only Month 12 and at both Months 12 and 18, and of the proportions of patients who achieved DAS-defined remission based on these characteristics. An analysis of the overall treatment effect in mean change from baseline in DAS28 (CRP) (including data up to Month 12 of the treatment period) was performed for each treatment arm. Overall treatment effect and treatment differences between the three arms were obtained using a longitudinal repeated measures model including fixed categorical effects of treatment, months, and prior corticosteroid use as well as the continuous fixed covariate of baseline value. An unstructured covariance matrix was used to represent the correlation of the repeated measures within each subject.

## Abatacept plus MTX: treatment arm: SC abatacept (CTLA4-Ig) 125 mg/week plus methotrexate titrated to 15-20 mg/week
Patients with early RA [1]; FIG. 7A-C
  decreases from baseline in synovitis and osteitis scores by MRI, compared with MTX: numerically greater decreases
Patients with early RA [1]; FIG. 7C
  progression of erosion score by MRI, compared with MTX: less progression
Patients with early RA [2]; Month 12
  HAQ-DI Response (≥0.3), proportion of patients: 78 (65.5) %
Patients with early RA [2]; Month 12, listed as abatacept plus MTX
  HAQ-DI Response (≥0.3), proportion of patients: 65.5%
Patients with early RA [2]; Month 18
  HAQ-DI Response (≥0.3), proportion of patients: 26 (21.8) %
Patients with early RA [3]; FIG. 4A-D and FIG. 5A-E
  other remission endpoints (SDAI, CDAI, Boolean), ACR responses and major clinical response versus MTX over time: numerically greater
Patients with early RA [3]; Month 12 of treatment period, patients with baseline DAS28 (CRP), discontinuations imputed as non-responders
  proportion of patients in DAS-defined remission (DAS28 [CRP]<2.6) at Month 12: 60.9%
Patients with early RA [3]; after withdrawal of all RA therapy at Month 12, only patients with DAS28 (CRP) available at baseline
  proportion of patients in DAS-defined remission (DAS28 [CRP]<2.6) at both Months 12 and 18: 14.8%
Patients with early RA [3]; after withdrawal of all therapy
  patients able to maintain drug-free remission through 6 months: one in four
Patients with early RA [3]; of the patients who entered the withdrawal period in DAS-defined remission at Month 12
  patients remaining in DAS-defined remission at Month 18: 24.7%
Patients with early RA [3]; post hoc subgroup: baseline DAS28 (CRP) >Median (5.4)
  Proportion of Patients with DAS-defined Remission (DAS28 [CRP] < 2.6) at Both Months 12 and 18: 3/59 (5.1) %
Patients with early RA [3]; post hoc subgroup: baseline DAS28 (CRP) Missing
  Proportion of Patients with DAS-defined Remission (DAS28 [CRP] < 2.6) at Both Months 12 and 18: 1/4 (25.0) %
Patients with early RA [3]; post hoc subgroup: baseline DAS28 (CRP) ≤Median (5.4)
  Proportion of Patients with DAS-defined Remission (DAS28 [CRP] < 2.6) at Both Months 12 and 18: 14/56 (25.0) %
Patients with early RA [3]; post hoc subgroup: baseline Erosion >Median (4.5)
  Proportion of Patients with DAS-defined Remission (DAS28 [CRP] < 2.6) at Both Months 12 and 18: 10/54 (18.5) %
Patients with early RA [3]; post hoc subgroup: baseline Erosion >Q1 (1.5)-Q2 (4.5)
  Proportion of Patients with DAS-defined Remission (DAS28 [CRP] < 2.6) at Both Months 12 and 18: 3/27 (11.1) %
Patients with early RA [3]; post hoc subgroup: baseline Erosion >Q2 (4.5)-Q3 (8.5)
  Proportion of Patients with DAS-defined Remission (DAS28 [CRP] < 2.6) at Both Months 12 and 18: 8/25 (32.0) %
Patients with early RA [3]; post hoc subgroup: baseline Erosion >Q3 (8.5)
  Proportion of Patients with DAS-defined Remission (DAS28 [CRP] < 2.6) at Both Months 12 and 18: 2/29 (6.9) %
Patients with early RA [3]; post hoc subgroup: baseline Erosion Missing
  Proportion of Patients with DAS-defined Remission (DAS28 [CRP] < 2.6) at Both Months 12 and 18: 1/15 (6.7) %
Patients with early RA [3]; post hoc subgroup: baseline Erosion ≤Median (4.5)
  Proportion of Patients with DAS-defined Remission (DAS28 [CRP] < 2.6) at Both Months 12 and 18: 7/50 (14.0) %
Patients with early RA [3]; post hoc subgroup: baseline Erosion ≤Q1 (1.5)
  Proportion of Patients with DAS-defined Remission (DAS28 [CRP] < 2.6) at Both Months 12 and 18: 4/23 (17.4) %
Patients with early RA [3]; post hoc subgroup: baseline HAQ-DI >Median (1.375)
  Proportion of Patients with DAS-defined Remission (DAS28 [CRP] < 2.6) at Both Months 12 and 18: 3/55 (5.5) %
Patients with early RA [3]; post hoc subgroup: baseline HAQ-DI Missing
  Proportion of Patients with DAS-defined Remission (DAS28 [CRP] < 2.6) at Both Months 12 and 18: 3/6 (50.0) %
Patients with early RA [3]; post hoc subgroup: baseline HAQ-DI ≤Median (1.375)
  Proportion of Patients with DAS-defined Remission (DAS28 [CRP] < 2.6) at Both Months 12 and 18: 12/58 (20.7) %
Patients with early RA [3]; post hoc subgroup: baseline Osteitis >Median (0.5)
  Proportion of Patients with DAS-defined Remission (DAS28 [CRP] < 2.6) at Both Months 12 and 18: 9/50 (18.0) %
Patients with early RA [3]; post hoc subgroup: baseline Osteitis >Q1 (0)-Q2 (0.5)
  Proportion of Patients with DAS-defined Remission (DAS28 [CRP] < 2.6) at Both Months 12 and 18: 2/13 (15.4) %
Patients with early RA [3]; post hoc subgroup: baseline Osteitis >Q2 (0.5)-Q3 (5)
  Proportion of Patients with DAS-defined Remission (DAS28 [CRP] < 2.6) at Both Months 12 and 18: 7/25 (28.0) %
Patients with early RA [3]; post hoc subgroup: baseline Osteitis >Q3 (5)
  Proportion of Patients with DAS-defined Remission (DAS28 [CRP] < 2.6) at Both Months 12 and 18: 2/25 (8.0) %
Patients with early RA [3]; post hoc subgroup: baseline Osteitis Missing
  Proportion of Patients with DAS-defined Remission (DAS28 [CRP] < 2.6) at Both Months 12 and 18: 1/15 (6.7) %
Patients with early RA [3]; post hoc subgroup: baseline Osteitis ≤Median (0.5)
  Proportion of Patients with DAS-defined Remission (DAS28 [CRP] < 2.6) at Both Months 12 and 18: 8/54 (14.8) %
Patients with early RA [3]; post hoc subgroup: baseline Osteitis ≤Q1 (0)
  Proportion of Patients with DAS-defined Remission (DAS28 [CRP] < 2.6) at Both Months 12 and 18: 6/41 (14.6) %
Patients with early RA [3]; post hoc subgroup: baseline Pain (100 mm VAS) >Median (62)
  Proportion of Patients with DAS-defined Remission (DAS28 [CRP] < 2.6) at Both Months 12 and 18: 4/65 (6.2) %
Patients with early RA [3]; post hoc subgroup: baseline Pain (100 mm VAS) Missing
  Proportion of Patients with DAS-defined Remission (DAS28 [CRP] < 2.6) at Both Months 12 and 18: 3/6 (50.0) %
Patients with early RA [3]; post hoc subgroup: baseline Pain (100 mm VAS) ≤Median (62)
  Proportion of Patients with DAS-defined Remission (DAS28 [CRP] < 2.6) at Both Months 12 and 18: 11/48 (22.9) %
Patients with early RA [3]; post hoc subgroup: baseline Synovitis >Median (4.5)
  Proportion of Patients with DAS-defined Remission (DAS28 [CRP] < 2.6) at Both Months 12 and 18: 5/47 (10.6) %
Patients with early RA [3]; post hoc subgroup: baseline Synovitis >Q1 (2)-Q2 (4.5)
  Proportion of Patients with DAS-defined Remission (DAS28 [CRP] < 2.6) at Both Months 12 and 18: 7/27 (25.9) %
Patients with early RA [3]; post hoc subgroup: baseline Synovitis >Q2 (4.5)-Q3 (8.5)
  Proportion of Patients with DAS-defined Remission (DAS28 [CRP] < 2.6) at Both Months 12 and 18: 3/23 (13.0) %
Patients with early RA [3]; post hoc subgroup: baseline Synovitis >Q3 (8.5)
  Proportion of Patients with DAS-defined Remission (DAS28 [CRP] < 2.6) at Both Months 12 and 18: 2/24 (8.3) %
Patients with early RA [3]; post hoc subgroup: baseline Synovitis Missing
  Proportion of Patients with DAS-defined Remission (DAS28 [CRP] < 2.6) at Both Months 12 and 18: 1/15 (6.7) %
Patients with early RA [3]; post hoc subgroup: baseline Synovitis ≤Median (4.5)
  Proportion of Patients with DAS-defined Remission (DAS28 [CRP] < 2.6) at Both Months 12 and 18: 12/57 (21.1) %
Patients with early RA [3]; post hoc subgroup: baseline Synovitis ≤Q1 (2)
  Proportion of Patients with DAS-defined Remission (DAS28 [CRP] < 2.6) at Both Months 12 and 18: 5/30 (16.7) %
Patients with early RA [3]; post hoc subgroup: symptom duration >6 Months
  Proportion of Patients with DAS-defined Remission (DAS28 [CRP] < 2.6) at Both Months 12 and 18: 4/49 (8.2) %
Patients with early RA [3]; post hoc subgroup: symptom duration >Median (0.37 years)
  Proportion of Patients with DAS-defined Remission (DAS28 [CRP] < 2.6) at Both Months 12 and 18: 6/61 (9.8) %
Patients with early RA [3]; post hoc subgroup: symptom duration ≤6 Months
  Proportion of Patients with DAS-defined Remission (DAS28 [CRP] < 2.6) at Both Months 12 and 18: 14/70 (20.0) %
Patients with early RA [3]; post hoc subgroup: symptom duration ≤Median (0.37 years)
  Proportion of Patients with DAS-defined Remission (DAS28 [CRP] < 2.6) at Both Months 12 and 18: 12/58 (20.7) %
Patients with early RA [3]; post hoc, overall treatment effect over the 12 months of the treatment period
  estimated treatment difference (95% CI) versus MTX in change from baseline in DAS28 (CRP): −0.52 (−0.74, −0.30)
Patients with early RA [3]; treatment period, FIG. 4A, from Day 57 (abatacept plus MTX), at most other time points (monotherapy)
  DAS-defined remission rates versus MTX over time: Numerically higher
